# Only some compounds are listed: those with a hit (about 2.2% of all), similar ones and a draw of the others.
# A549 tox-1: A549 cytotoxicity, counter-screen for Nrf2 inhibitors; A549 ARE-Fluc cells, CellTiter-Fluor viability, 18-24 h; Potency, µM (highest dose often 46 µM), inactives show at the top dose activity change, negative = cytotoxicity, usual class: inhibitors; 390,000 tested, 0.16% active; note: potency is the fitted concentration of half-maximal effect; % is set by controls: 0 for no effect and ±100 for the full control effect
#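 Cytotoxicity counterscreen: CellTiter-Fluor fluorescence was measured in A549 ARE_Fluc cells after 18-24 h of compound exposure in a concentration series. The subsequent BugLite luminescent read reports ARE-luciferase activity.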
# Nrf2 ARE act: Nrf2 pathway activation | 410,000 tested, 0.31% active | Potency, µM (top dose mostly 46.1 µM), for inactives: top-dose activation, hits mostly activators | AREc32 ARE-luciferase reporter (MCF7-derived line), luminescence, 24 h; note: potency is the fitted concentration of half-maximal effect; % of control where 0% means no effect; nearly all actives have a fitted effect of over 65% in size
#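 For detection, Steady-Glo was added and plates sat 30 min at RT; before that, AREc32_Fluc cells grown overnight in OPTI-MEM/5% FBS had been treated with 23 nL compound for 24 hr at 37 deg C.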
# Nrf2 inh: inhibitors of Nrf2 signaling; A549 ARE-Fluc reporter, luciferase luminescence, 18-24 h; Potency, µM (series often up to 46 µM), for inactives: top-dose activity change, negative = inhibition, actives largely listed as inhibitors; 360,000 tested, 2.1% active; note: potency is the fitted concentration of half-maximal effect; % is set by controls: 0 for no effect and ±100 for the full control effect; nearly all actives have a fitted effect of over 60% in size
#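 Concentration-response testing used A549 ARE_Fluc cells at 5000 cells/well. Following an 18-24 h compound incubation, viability was read by fluorescence (Ex 405/Em 525) and luciferase output by luminescence.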
# GALK inh: galactokinase (human) inhibition; P51570; Purified GALK, Kinase-Glo residual ATP luminescence; 270,000 tested, 0.007% active; AID 1868; Potency, µM (doses to about 57.5 µM), for the others: at the highest dose activity change, negative = inhibition, hits mostly inhibitors; note: potency is the fitted concentration of half-maximal effect; % is set by controls: 0 for no effect and ±100 for the full control effect
#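 GALK at 5 nM final was combined with compound, 35 uM ATP and 100 uM galactose in HEPES pH8.0 with MgCl2 and DTT. The reaction ran one hour at room temperature before luminescent ATP detection.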
# PI4K2A block: inhibitors of human PI4K2A; Q9BTU6; purified PI4K2A, ADP-Glo luminescence, 1 h; hits give low values; activity change, negative = inhibition, % at 76.9 µM; 420,000 tested, 0.13% active; AID 1346378; in the data active = activity change below about -50%; inconclusive = mostly about -30% to -49%;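 note: -100% = wells without enzyme as full effect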
#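 PI4K2A activity was measured by ADP-Glo luminescence: enzyme (4 ug/mL stock) and phosphatidylinositol (1.2 mM stock) in Tris pH 7.5/MgCl2/EGTA/Triton X-100 buffer were reacted with ATP (300 microM stock) for one hour at ambient temperature.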
# miR-21 reporter: raises the signal of a miR-21 reporter | Potency, µM (highest dose often 38.3 µM), without a hit: at the top dose reporter change, positive = more light | HeLa miR-21 FLuc reporter, luciferase, 48 h | 340,000 tested, under 10 active; active = well fitted rising curve with a large enough effect; inconclusive = small, poorly fitted or top-dose-only effect; inactive = no such curve, though single readings can be large or run the other way;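 further: % of control where 0% means no effect; miR-21 action dims this reporter so a rising signal means less miR-21 action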
#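 HeLa cells endogenously expressing miR-21, stably carrying CMV-driven firefly luciferase with a downstream miR-21 binding site, 2000 cells/well. Titrations up to approximately 40 uM, 48 hours; luciferase luminescence read.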
# FLuc counter 3: counter-screen for Nrf2 inhibitors: firefly luciferase enzyme inhibition | 1,400 tested, 4% active | AID 720522 | Potency, µM (highest dose often 57.5 µM), for inactives: at the highest dose activity change, negative = inhibition, most hits filed as inhibitors | shares compounds with Nrf2 inh | purified firefly luciferase, luminescence inhibition; note: potency is the fitted concentration of half-maximal effect; % is set by controls: 0 for no effect and ±100 for the full control effect; nearly all actives have a fitted effect of over 65% in size
# A549 tox-2: counter-screen for Nrf2 inhibitors: cytotoxicity in A549 ARE cells; Potency, µM (top dose mostly 46.1 µM), inactives show top-dose activity change, negative = cytotoxicity, hits mostly inhibitors; A549 ARE-Fluc cells, cytotoxicity counterscreen; 1,400 tested, 2% active; shares compounds with Nrf2 inh;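 note: potency is the fitted concentration of half-maximal effect; cells exposed to compounds for 18 to 24 hours; % is set by controls: 0 for no effect and ±100 for the full control effect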
# ARE-Fluc inh: reduces Nrf2 ARE reporter signal in A549 cells. A549 ARE-firefly luciferase reporter, luminescence. Potency, µM (doses to about 46.1 µM), without a hit: at the highest dose activity change, negative = inhibition, actives largely listed as inhibitors. 1,400 tested, 74% active. AID 720524. shares compounds with Nrf2 inh; note: potency is the fitted concentration of half-maximal effect; % is set by controls: 0 for no effect and ±100 for the full control effect; nearly all actives have a fitted effect of over 65% in size
# Starred values were filed as active, the others as inactive; ? = inconclusive; . = not tested or not shown. Unless noted, calls come from the whole dose curve; as a rule, active = well fitted curve in the direction sought with a large enough effect; inconclusive = small, poorly fitted or top-dose-only effect, or another doubt; inactive = no such curve, though single readings can be large; an effect the other way counts as inactive or inconclusive.
# Letters – A = A549 tox-1; B = Nrf2 ARE act; C = Nrf2 inh; D = GALK inh; E = PI4K2A block; F = miR-21 reporter; G = FLuc counter 3; H = A549 tox-2; I = ARE-Fluc inh
O=[N+]([O-])c1ccc(S(=O)(=O)CC2CSc3nc4ccccc4n32)cc1 (stereo unspecified)
  A: -17%; B: 1%; C: 5.2µM*; D: 2%; E: 1; F: -2%; G: -2%; H: ?; I: 2.1µM*

Cc1nnc2n(c1=O)C(CS(=O)(=O)c1ccccc1)CS2 (stereo unspecified)
  A: -1%; B: 0%; C: -3%; D: 2%; E: -1; F: -1%; G: .; H: .; I: .

CC(=O)NC(Cc1ccc2c(c1)OCO2)C(=O)N1CCCN(C(C)=O)CC1 (stereo unspecified)
  A: .; B: .; C: .; D: .; E: -3; F: .; G: .; H: .; I: .

Cc1ccc(S(=O)(=O)N(Cc2ccccc2)c2ccccc2C(=O)Nc2ccccc2C(=O)NCc2ccco2)cc1
  A: 2%; B: 3%; C: -20%; D: .; E: -7; F: -2%; G: .; H: .; I: .

Cc1ccc(S(=O)(=O)N(Cc2ccccc2)c2ccccc2C(=O)NCc2ccco2)cc1
  A: ?; B: 7%; C: 5.2µM*; D: -3%; E: -8; F: 4%; G: -10%; H: -17%; I: 9%

O=C(Oc1ccc(N(Cc2cccs2)C2=NS(=O)(=O)c3ccccc32)cc1)c1ccccc1Cl
  A: -5%; B: -1%; C: 1µM*; D: 0%; E: -20; F: 1%; G: -2%; H: -1%; I: 3.7µM*

O=C(Oc1ccc(N(Cc2cccs2)C2=NS(=O)(=O)c3ccccc32)cc1)c1ccco1
  A: 0%; B: 0%; C: -22%; D: -2%; E: 0; F: 1%; G: .; H: .; I: .

O=C1CC(c2ccco2)Cc2[nH]c(=O)c(C(=O)Nc3ccccc3)cc21 (stereo unspecified)
  A: .; B: .; C: .; D: .; E: .; F: .; G: -17%; H: -10%; I: ?

Cc1ccc(Cl)cc1N1CCN(C(=O)c2cc3c(=O)n(C)c4ccccc4c3n2C)CC1
  A: -18%; B: 0%; C: 4.1µM*; D: 0%; E: -4; F: 1%; G: 4%; H: -22%; I: 6.5µM*

CC(=O)CC[C@H]1CC[C@]2(CCCN(C(=O)c3ccc4ccccc4n3)C2)O1
  A: .; B: .; C: .; D: .; E: -3; F: .; G: .; H: .; I: .

C=CCN(C(=O)[C@@H](CCCC)[C@@H](O)c1ccc(C(C)=O)cc1)c1ccccc1
  A: .; B: .; C: .; D: .; E: 0; F: .; G: .; H: .; I: .

COc1ccc2c(Sc3ccccc3)c(C(=O)NCc3cccc(OC)c3OC)[nH]c2c1
  A: -3%; B: 3%; C: 9.2µM*; D: .; E: -4; F: 15%; G: -9%; H: -8%; I: -1%

O=C(O)CCSc1nc2ccccc2n1-c1ccccc1
  A: -3%; B: 0%; C: 5.8µM*; D: -2%; E: 0; F: -24%; G: -1%; H: 3%; I: 5.8µM*

CC(C)N(C(=O)CSc1nc2ccccc2n1-c1ccccc1)C(C)C
  A: -14%; B: 1%; C: -20%; D: 0%; E: 0; F: -1%; G: .; H: .; I: .

CN1/C(=C\C=[N+](C)c2ccccc2)C(C)(C)c2ccccc21
  A: 9.2µM*; B: 2%; C: 0.82µM*; D: -1%; E: -4; F: ?; G: 2%; H: ?; I: 1.2µM*

CN1/C(=C\C=N\O)C(C)(C)c2ccccc21
  A: 0%; B: 0%; C: -2%; D: -1%; E: 2; F: -4%; G: .; H: .; I: .

COc1ccc(CN(C)C(=O)/C=C/c2ccc(S(=O)(=O)N3CCCCCC3)cc2)cc1
  A: -15%; B: 2%; C: 9.2µM*; D: .; E: 4; F: .; G: -12%; H: -18%; I: ?

Cc1ccc(CON=C2CCN(c3ncc(C(F)(F)F)cc3Cl)CC2)cc1
  A: 15%; B: 0%; C: -16%; D: -6%; E: -8; F: 1%; G: .; H: .; I: .

FC(F)(F)c1cnc(N2CCC(=NOCc3ccc(Cl)cc3)CC2)c(Cl)c1
  A: -25%; B: -1%; C: 8.2µM*; D: -2%; E: -1; F: 0%; G: 1%; H: 21%; I: 7%

Cc1ccc(F)cc1NC(=O)N1CCN(c2ccnc3cc(Cl)ccc23)CC1
  A: -17%; B: -1%; C: 9.2µM*; D: .; E: 5; F: 10%; G: -1%; H: -3%; I: 9.2µM*

C[C@H](O)[C@@H]1CN2CCc3c([nH]c4cccc(-c5ccc6c(c5)OCO6)c34)[C@@H]2C[C@@H]1N(C)C(=O)c1ccco1
  A: .; B: .; C: .; D: .; E: 2; F: .; G: .; H: .; I: .

Cc1ccccc1NC1=C(Cl)C(=O)OC1OC(=O)c1ccccc1C (stereo unspecified)
  A: ?; B: ?; C: 1.6µM*; D: 0%; E: -1; F: 8%; G: -4%; H: -2%; I: ?

COC(=O)c1[nH]c2ccc(C)cc2c1NC(=O)CN1CCC(C)CC1
  A: -18%; B: 0%; C: ?; D: 0%; E: -3; F: 0%; G: .; H: .; I: .

COC(=O)c1[nH]c2ccc(C)cc2c1NC(=O)CN1CCN(c2ccc(F)cc2)CC1
  A: ?; B: 1%; C: 8.9µM*; D: 3%; E: 8; F: -6%; G: -14%; H: -19%; I: 8.2µM*

Cc1cccc2sc(NNC(=O)c3ccc(S(=O)(=O)N4CCCC(C)C4)cc3)nc12 (stereo unspecified)
  A: -21%; B: 0%; C: ?; D: .; E: -4; F: 25%; G: .; H: .; I: .

Cc1cccc2sc(NNC(=O)c3ccc(S(=O)(=O)N4CCc5ccccc5C4)cc3)nc12
  A: -13%; B: 2%; C: ?; D: .; E: 3; F: 16%; G: -13%; H: -23%; I: 6.5µM*

CCOC(=O)N1CCN(S(=O)(=O)c2ccc(C(=O)NNc3nc4ccc(Cl)cc4s3)cc2)CC1
  A: ?; B: 0%; C: 5.8µM*; D: .; E: -1; F: 13%; G: -12%; H: -19%; I: 7.3µM*

CCOC(=O)Cn1cc(CN2C(C(=O)OC)CN(CCO)CCS2(=O)=O)nn1 (stereo unspecified)
  A: .; B: .; C: .; D: .; E: 0; F: .; G: .; H: .; I: .

Cn1ccnc1C(=O)O[C@@H]1CCC[C@@]2(C(=O)N(Cc3ccccc3)c3ccccc32)[C@H]1NC(=O)CCc1ccccc1
  A: .; B: .; C: .; D: .; E: 0; F: .; G: .; H: .; I: .

N#CCC[C@H]1CC[C@]2(CCCN(Cc3cccc4ccccc34)C2)O1
  A: .; B: .; C: .; D: .; E: 1; F: .; G: .; H: .; I: .

CC(C)NS(=O)(=O)c1ccc(NC(=S)NC(=O)c2ccc(-c3ccccc3)cc2)cc1
  A: -5%; B: 0%; C: 2.1µM*; D: -1%; E: 0; F: 7%; G: -1%; H: -9%; I: 4.6µM*

CC(=O)Nc1ccc(NC(=S)NC(=O)c2ccc(-c3ccccc3)cc2)cc1
  A: -3%; B: -1%; C: -23%; D: .; E: -3; F: .; G: .; H: .; I: .

# 3 entries picked at random from the list so far, as already listed:
# Letters – A = A549 tox-1; B = Nrf2 ARE act; C = Nrf2 inh; D = GALK inh; E = PI4K2A block; F = miR-21 reporter; G = FLuc counter 3; H = A549 tox-2; I = ARE-Fluc inh
CC(C)NS(=O)(=O)c1ccc(NC(=S)NC(=O)c2ccc(-c3ccccc3)cc2)cc1
  A: -5%; B: 0%; C: 2.1µM*; D: -1%; E: 0; F: 7%; G: -1%; H: -9%; I: 4.6µM*

Cc1ccc(S(=O)(=O)N(Cc2ccccc2)c2ccccc2C(=O)Nc2ccccc2C(=O)NCc2ccco2)cc1
  A: 2%; B: 3%; C: -20%; D: .; E: -7; F: -2%; G: .; H: .; I: .

Cc1cccc2sc(NNC(=O)c3ccc(S(=O)(=O)N4CCCC(C)C4)cc3)nc12 (stereo unspecified)
  A: -21%; B: 0%; C: ?; D: .; E: -4; F: 25%; G: .; H: .; I: .

# Compound activity deposited in PubChem BioAssay by National Center for Advancing Translational Sciences (NCATS).
